Data from patent US9434764B2, “Skin care compositions and methods comprising selective agonists of melanocortin 1 receptor” (University of Cincinnati, priority 2012, dated 2016).

Amino acid sequences for entries named in this document (tags omitted).
UniProt P32245, whole entry: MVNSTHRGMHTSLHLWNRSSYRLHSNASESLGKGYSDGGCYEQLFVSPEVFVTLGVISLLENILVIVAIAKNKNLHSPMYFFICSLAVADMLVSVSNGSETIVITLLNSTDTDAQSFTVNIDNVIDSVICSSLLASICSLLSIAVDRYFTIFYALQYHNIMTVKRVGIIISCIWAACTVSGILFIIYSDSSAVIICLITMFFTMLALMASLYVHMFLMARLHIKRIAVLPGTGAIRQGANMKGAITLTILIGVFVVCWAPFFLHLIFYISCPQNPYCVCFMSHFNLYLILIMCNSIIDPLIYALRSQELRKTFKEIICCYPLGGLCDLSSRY

Molecular target: T1, hMC4R (Homo sapiens, UniProt P32245)
T1 construct: expressed in transfected cells
Experiment: cAMP stimulation in heterologous cells expressing human MC4R
Assay type: cell-based
Protocol: Receptor selectivity of peptide agonists for hMC1R was determined by stimulation of cAMP in heterologous cells expressing different human melanocortin receptors (MC1R, MC3R, MC4R, and MC5R).

`NC(=O)[C@H](Cc1c[nH]c2ccccc12)NC(=O)[C@H](CCCN=C(N)N)NC(=O)[C@@H](Cc1ccccc1)NC(=O)[C@H](Cc1cnc[nH]1)NC(=O)CCCc1ccccc1` [LK-184, Ph(CH2)3CO-His-(D-Phe)-Arg-Trp-NH2] gave an EC50 of 1.69 nM.
